Earlier results on three compounds are cited in patent US20120190751A1, “COMPOUNDS FOR TREATMENTS OF INFLAMMATION” (ANA-MAR AB, priority 2009, published 2012).

Protein sequences, listed by entry. Tags and fused reporters are not part of them.
UniProt P41595, whole entry: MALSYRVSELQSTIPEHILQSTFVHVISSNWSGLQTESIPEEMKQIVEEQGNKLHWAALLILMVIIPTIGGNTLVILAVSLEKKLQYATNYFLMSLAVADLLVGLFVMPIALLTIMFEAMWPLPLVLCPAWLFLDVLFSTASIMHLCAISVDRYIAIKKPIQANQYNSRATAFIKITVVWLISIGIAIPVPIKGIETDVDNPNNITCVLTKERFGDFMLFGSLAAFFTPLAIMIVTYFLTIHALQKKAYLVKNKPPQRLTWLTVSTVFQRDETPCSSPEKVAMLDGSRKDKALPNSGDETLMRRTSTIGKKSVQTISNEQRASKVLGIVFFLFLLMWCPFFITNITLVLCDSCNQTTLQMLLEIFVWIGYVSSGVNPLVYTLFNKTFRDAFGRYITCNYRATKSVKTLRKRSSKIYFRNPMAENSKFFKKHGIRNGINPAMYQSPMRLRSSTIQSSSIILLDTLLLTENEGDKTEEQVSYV

For this series, the target named is 5HT2B receptor (Homo sapiens, UniProt P41595). Particulars: 5HT2B receptor antagonists, Table 1; cited from earlier work.

For the compound `O=c1n(CCCN2CCN(c3cccc(Cl)c3)CC2)nc2ccccn12` [trazodone, 8-[3-[4-(3-chlorophenyl)piperazin-1-yl]propyl]-6,8,9-triazabicyclo[4.3.0]nona-2,4,9-trien-7-one], the Affinity is listed as 7.1 pKi.

As to `CN1CCN2c3ccccc3Cc3ccccc3C2C1` (racemic) [mianserin, (±)-2-methyl-1,2,3,4,10,14b-hexahydrodibenzo[c,f]pyrazino[1,2-a]-azepine], the Affinity is reported as 7.9-8.8 pKi.

`CSc1ccc2c(c1)C(N1CCN(C)CC1)Cc1ccccc1S2` (stereo not drawn) [methiothepin]: the Affinity is on record as 8.7-9.2 pKi.
